IC50 data for 6 compounds are collected here from article PMC6222802 (Molecules : A Journal of Synthetic Chemistry and Natural …, 2018).

The assay concerns SMMC-7721 cells. Briefly: cells. The note with it: Homo sapiens, SMMC-7721, 48 h, read-out: IC50, SMMC-7721.
A word on the IC50: it is the concentration that inhibits the measured activity by half. For `COC(=O)CCC[C@@H]1[C@H]2CCCN3CCC[C@H](CN1P(=O)(Oc1ccc(Cl)cc1)N(CCCl)CCCl)[C@@H]23` (stereo partly drawn) [Compound 7c], the IC50 is 31.7 ± 1.21 µM. As to `COC(=O)CCC[C@@H]1[C@H]2CCCN3CCC[C@H](CN1P(=O)(Oc1ccc(C)cc1)N(CCCl)CCCl)[C@@H]23` (stereo partly drawn) [Compound 7a], the IC50 stood at 60.8 ± 2.34 µM. The figure for `COC(=O)CCC[C@@H]1[C@H]2CCCN3CCC[C@H](CN1P(=O)(Oc1ccc(OC)cc1)N(CCCl)CCCl)[C@@H]23` (stereo partly drawn) [Compound 7b] is 65.2 ± 2.67 µM; for `O=C1CCC[C@@H]2[C@H]3CCCN4CCC[C@H](CN12)[C@@H]34` [Compound 1, Sophoridine, reference compound] it is more than 100 µM; for `COC(=O)CCC[C@@H]1[C@H]2CCCN3CCC[C@H](CN1P(=O)(Oc1ccc([N+](=O)[O-])cc1)N(CCCl)CCCl)[C@@H]23` (stereo partly drawn) [Compound 7d] it is 36.5 ± 2.45 µM.

Turning to `COC(=O)CCC[C@@H]1[C@H]2CCCN3CCC[C@H](CN1P(=O)(Oc1ccccc1)N(CCCl)CCCl)[C@@H]23` (stereo partly drawn) [Compound 7e], the IC50 turned out to be 77.9 ± 2.78 µM.
